ED50 data for one compound are collected here from ChEMBL document CHEMBL1136784, “Synthesis and biological evaluation of 14-alkoxymorphinans. 18. N-substituted 14-phenylpropyloxymorphinan-6-ones with unanticipated agonist properties: extending the scope of common structure-activity relationships” (J Med Chem, 2003).

The experiment has as its target Opioid receptors; mu and delta (Mus musculus) (UniProt P42866+P32300). The experiment in a line: In vivo antinociceptive activity was determined upon subcutaneous administration in the mouse paraphenylquinone writhing test. It is filed as functional, organism-based.

In turn, `O=C1CC[C@@]2(OCCCc3ccccc3)[C@H]3Cc4ccc(O)c5c4[C@@]2(CCN3CCc2ccccc2)[C@H]1O5` came in with a median effective dose (ED50) of 9 µg/kg.

The ED50 is the dose that gives a 50% effect, or the effect in half of the subjects.
